Data published in publication PMC4839537 (Biochemical pharmacology, 2016).

Protein sequences, listed by entry. Tags and fused reporters are not part of them.
UniProt P30542, whole entry: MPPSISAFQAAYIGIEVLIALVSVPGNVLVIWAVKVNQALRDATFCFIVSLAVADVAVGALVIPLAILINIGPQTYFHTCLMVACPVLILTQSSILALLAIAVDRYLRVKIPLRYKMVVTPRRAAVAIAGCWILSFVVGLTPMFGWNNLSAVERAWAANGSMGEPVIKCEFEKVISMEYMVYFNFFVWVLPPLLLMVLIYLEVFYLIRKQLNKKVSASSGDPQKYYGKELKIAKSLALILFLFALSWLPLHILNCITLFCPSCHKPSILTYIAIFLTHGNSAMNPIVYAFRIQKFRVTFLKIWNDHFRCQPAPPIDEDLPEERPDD

Target: recombinant human A1AR (Gαi) (Homo sapiens, UniProt P30542)
Format: cell-based

CCNC(=O)[C@H]1O[C@@H](n2cnc3c(N)ncnc32)[C@H](O)[C@@H]1O [NECA, adenosine-5′-N-ethyluronamide]
Effect of NECA on cAMP accumulation: stimulates cAMP accumulation
